Assay results from patent US20230365958.

Protein sequences, listed by entry. Tags and fused reporters are not part of them.
human alpha-1-anti-trypsin, P01009, UniProt P01009, whole entry, looked up: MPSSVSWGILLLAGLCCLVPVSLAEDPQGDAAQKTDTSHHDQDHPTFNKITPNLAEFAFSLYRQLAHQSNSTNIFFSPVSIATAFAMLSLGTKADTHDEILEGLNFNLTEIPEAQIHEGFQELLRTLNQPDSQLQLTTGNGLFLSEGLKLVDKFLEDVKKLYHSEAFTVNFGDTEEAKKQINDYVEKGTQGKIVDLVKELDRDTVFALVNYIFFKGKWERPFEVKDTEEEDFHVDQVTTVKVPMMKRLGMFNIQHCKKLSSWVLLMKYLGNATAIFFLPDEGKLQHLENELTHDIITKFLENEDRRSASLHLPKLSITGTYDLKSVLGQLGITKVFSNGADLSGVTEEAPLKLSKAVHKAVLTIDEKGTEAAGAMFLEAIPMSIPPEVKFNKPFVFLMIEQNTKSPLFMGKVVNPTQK

Target: human alpha-1-anti-trypsin, P01009

B1: wild-type human neutrophil elastase (ELANE) (protein)
chain: IVGGRRARPHAWPFMVSLQLRGGHFCGATLIAPNFVMSAAHCVANVNVRAVRVVLGAHNLSRREPTRQVFAVQRIFENGYDPVNLLNDIVILQLNGSATINANVQVAQLPAQGRRLGNGVQCLAMGWGLLGRNRGIASVLQELNVTVVTSLCRRSNVCTLVRGRQAGVCFGDSGSPLVCNGLIHGIASFVRGGCASGLYPDAFAPVAQFVNWIDSIIQ
  Slope (linear regression of the decrease in enzyme activity versus A1AT concentration, 0-20 nM A1AT, colorimetric substrate assay): -3.76
